The values below come from patent publication US20200147243A1, “LIGAND COMPOUND OF ALPHA7 NICOTINIC ACETYLCHOLINE RECEPTOR AND APPLICATION THEREOF” (BEIJING NORMAL UNIVERSITY, priority 2017, published 2020).

Chains of the proteins cited; added tags and fusions are not shown. Lines headed by an entry give the natural chain unless they say otherwise; changes in a name come on top.
UniProt Q12809: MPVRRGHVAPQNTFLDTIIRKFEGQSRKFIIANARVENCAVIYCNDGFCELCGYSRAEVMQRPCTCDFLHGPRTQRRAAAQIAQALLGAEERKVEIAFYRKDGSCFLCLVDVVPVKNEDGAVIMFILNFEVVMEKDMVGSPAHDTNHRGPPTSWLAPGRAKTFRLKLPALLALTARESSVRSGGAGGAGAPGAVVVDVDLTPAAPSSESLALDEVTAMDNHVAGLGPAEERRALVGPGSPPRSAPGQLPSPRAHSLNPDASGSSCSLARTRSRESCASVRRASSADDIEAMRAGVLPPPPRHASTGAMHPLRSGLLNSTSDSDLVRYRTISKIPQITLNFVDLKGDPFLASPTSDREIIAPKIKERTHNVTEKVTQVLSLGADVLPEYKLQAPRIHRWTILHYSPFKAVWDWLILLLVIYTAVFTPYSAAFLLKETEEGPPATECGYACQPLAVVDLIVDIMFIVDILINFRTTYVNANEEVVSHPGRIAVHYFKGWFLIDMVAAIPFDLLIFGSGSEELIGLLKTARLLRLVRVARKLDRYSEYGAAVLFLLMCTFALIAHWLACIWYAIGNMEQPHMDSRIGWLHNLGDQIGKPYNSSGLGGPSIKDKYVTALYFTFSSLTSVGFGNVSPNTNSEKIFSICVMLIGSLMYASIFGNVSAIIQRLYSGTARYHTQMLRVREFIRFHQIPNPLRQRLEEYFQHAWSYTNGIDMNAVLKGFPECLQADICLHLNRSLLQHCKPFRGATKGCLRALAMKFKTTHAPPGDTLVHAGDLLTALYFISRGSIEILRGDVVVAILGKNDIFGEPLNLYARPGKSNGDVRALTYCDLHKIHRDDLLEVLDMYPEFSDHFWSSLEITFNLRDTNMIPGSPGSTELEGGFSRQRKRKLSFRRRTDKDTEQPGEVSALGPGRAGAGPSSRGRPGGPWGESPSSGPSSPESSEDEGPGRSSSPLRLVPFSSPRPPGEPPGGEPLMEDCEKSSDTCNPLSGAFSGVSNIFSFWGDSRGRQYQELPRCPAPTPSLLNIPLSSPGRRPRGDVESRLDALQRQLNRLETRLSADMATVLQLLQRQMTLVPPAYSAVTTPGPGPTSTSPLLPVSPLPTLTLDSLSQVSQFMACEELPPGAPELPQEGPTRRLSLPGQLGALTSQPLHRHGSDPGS

For this data set, the target named is hERG potassium channel (Homo sapiens, UniProt Q12809). Nature of the data set: in vitro.

`COc1cc(N)c(Cl)cc1C(=O)NC1CCN(CCCOc2ccc(F)cc2)CC1OC` (stereo not shown) [Cisapride, reference compound]: the inhibition (usually the share of the control response that was lost under treatment) at 5 min, 1 µM turned out to be 99%.
